One compound from patent publication US12123051B2, “Nucleic acid ratio determination” (priority 2017, dated 2024) can be followed below.

Where two headings read alike, the source gives them in different places.

Holding throughout (format): cell-based
The test system of assay [1] is Chlamydia trachomatis strains 1-5 in HEp-2 cells. The following applies: one hour PT. The procedure: After infection, there was no change of media at the 4 h time point. Once in an exponential growth phase, 20 hours PI, cells were treated with a single dose of different antibiotics. […] Strains used for this treatment protocol were Strain 1) serovar D lab strain (UW-3/Cx), Strain 2) serovar L2 wild type lab strain (434/Bu), Strain 3) serovar L2 lab created mutant strain, resistant to trimethoprim, Strain 4) serovar L2 lab created mutant strain, resistant to Spectinomycin and Strain 5) serovar L2 lab created mutant strain, resistant to Rifampicin. […] Samples were then incubated at 37° C. with 5% CO2 and harvested at 1 hour PT, using SPG buffer and extracted immediately. Two biological replicates were obtained for each condition.
The following example analyses the susceptibility of bacteria to a given drug, by estimation of the change of GAT levels relative to NED in TNA samples. These were then compared between samples treated with antibiotic and not treated (control). […] Treatment was as described in example 1, Treatment E (1.1.5). To obtain a measure GAT, Chlamydia DNA and RNA was amplified by RT-PCR using primers targeting two different locations of the omp1 gene and its transcripts. To measure NED, another region of Chlamydia DNA was co-amplified in the same RT-PCR using primers targeting a region of genomic DNA which is not transcribed. The levels of GAT and NED were estimated and used to calculate VITA Index. Further to this the VITA Indices of treated and untreated samples were used to calculate the ΔVITA Ratio.
(§1) Partzyme oligonucleotides, Reporter substrates and PCR primers used for amplification and detection of GAT1, GAT2 and NED were as per example 9 (9.1, 9.2 and 9.3 respectively). The RT-PCR conditions used were as described in Example 9 (9.5) and reactions contained either 5 μL of TNA template (1/1000 dilution) or no target (dH2O).
Chlamydia DNA and RNA from 2 GAT regions and one NED region, were co-amplified and detected in single RT-PCR from TNA extracted from chlamydia cultures. These cultures were treated with antibiotic or left untreated (control) at an exponential growth phase and harvested at 1 hour post treatment. […] The ΔCt was calculated as the differences between the Ct values of the NED and GAT1/2 signals.
The following example analyses the susceptibility of bacteria to a given drug, by estimation of the change of GAT levels relative to NED in TNA samples. These were then compared between samples treated with antibiotic and not treated (control). […]
Chlamydia DNA and RNA from 2 GAT regions and one NED region, were co-amplified and detected in single RT-PCR from TNA extracted from chlamydia cultures. […] The ΔCt was calculated as the differences between the Ct values of the NED and GAT1/2 signals.

Assay [2] has as its system Chlamydia trachomatis (serovar D) in HEp-2 cells. The assay is described as follows: Antibiotic susceptibility testing by VITA PCR, dose dependent response, Treatment Protocol D. To be noted: 1 h PT. As to the method: After infection, there was no change of media at the 4 h time point.
Further to this the VITA Indices of treated and untreated samples were used to calculate the ΔVITA Ratio.
(§2) The ΔCt was calculated as the differences between the Ct values of the NED and GAT1/2 signals.
To measure NED, another region of Chlamydia DNA was co-amplified in the same RT-PCR using primers targeting a region of genomic DNA which is not transcribed. […] Further to this the VITA Indices of treated and untreated samples were used to calculate the ΔVITA Ratio.
as §1, §2

For assay [3] the test system is unchanged. The assay is described as follows: VITA PCR (triplex) with long GAT1 and GAT2 amplicons, Treatment Protocol A. To be noted: added 4 h PI, harvested 44 h PI, TR 2.
The test system is the same in assay [4]. Kind of assay: Antibiotic susceptibility testing by VITA PCR, azithromycin, Treatment Protocol B. The procedure: The levels of GAT and NED were estimated and used to calculate VITA Index.
as §2
To measure NED, another region of Chlamydia DNA was co-amplified in the same RT-PCR using primers targeting a region of genomic DNA which is not transcribed. The levels of GAT and NED were estimated and used to calculate VITA Index.
as §2

Assay [5] shares this test system. The assay is described as follows: VITA PCR (duplex RT-PCR, one GAT omp1 and NED infAIGR), Treatment Protocol A. The following applies: added 4 h PI, harvested 44 h PI, TR 1.

For the compound `CC[C@H]1OC(=O)[C@H](C)[C@@H](O[C@H]2C[C@@](C)(OC)[C@@H](O)[C@H](C)O2)[C@H](C)[C@@H](O[C@@H]2O[C@H](C)C[C@H](N(C)C)[C@H]2O)[C@](C)(O)C[C@@H](C)CN(C)[C@H](C)[C@@H](O)[C@]1(C)O` [Azithromycin], the “VITA Index” value was determined as 3.95 in assay [1] (Table 12a: Strain 1, plus antibiotic 0.256 μg/mL); 4.27 in assay [1] (Table 12a: Strain 2, plus antibiotic 0.256 μg/mL); 5.66 in assay [1] (Table 12a: Strain 3, plus antibiotic 0.256 μg/mL); 5.50 in assay [1] (Table 12a: Strain 5, plus antibiotic 0.256 μg/mL); 89.28 in assay [2] (Example 10 (Extraction Protocol A, 24 h PI): dose 1 (0.128 μg/mL)); 70.74 in assay [2] (Example 10 (Extraction Protocol A, 24 h PI): dose 2 (0.192 μg/mL)). Also, the “VITA Index” value was determined as 28.91 in assay [2] (Example 10 (Extraction Protocol A, 24 h PI): dose 3 (0.256 μg/mL)); 4.47 in assay [2] (Example 11 (Extraction Protocol B, 20 h PI): dose 1 (0.128 μg/mL)); 4.18 in assay [2] (Example 11 (Extraction Protocol B, 20 h PI): dose 2 (0.192 μg/mL)); 3.35 in assay [2] (Example 11 (Extraction Protocol B, 20 h PI): dose 4 (0.512 μg/mL)); 1.53 in assay [3] (<MIC (0.008 μg/mL)); 0.40 in assay [3] (>MIC (0.512 μg/mL)). In addition, the “VITA Index” value in assay [3] (MIC (0.064 μg/mL)) is recorded as 0.61; in assay [4] (Example 7: plus antibiotic 0.128 μg/mL at 24 h PI, 1 h PT) it was 5.78; in assay [4] (Example 7: plus antibiotic 0.128 μg/mL at 24 h PI, 6 h PT) it was 14.35; in assay [4] (Example 8: plus antibiotic 0.128 μg/mL at 24 h PI, 30 min PT) it was 94; in assay [4] (Example 8: plus antibiotic 0.128 μg/mL at 24 h PI, 1 h PT), 49.20; in assay [5] (<MIC (0.008 μg/mL)), 2.77. Besides, the “VITA Index” value in assay [5] (>MIC (0.512 μg/mL)) stood at 1.51; in assay [5] (MIC (0.064 μg/mL)) it was 1.49.
